Reference: ChEMBL document CHEMBL1126551, “Three-dimensional quantitative structure-activity relationships of 5-HT receptor binding data for tetrahydropyridinylindole derivatives: a comparison of the Hansch and CoMFA methods” (J Med Chem, 1993)

Chains of the proteins cited; added tags and fusions are not shown.
UniProt P19327, whole entry: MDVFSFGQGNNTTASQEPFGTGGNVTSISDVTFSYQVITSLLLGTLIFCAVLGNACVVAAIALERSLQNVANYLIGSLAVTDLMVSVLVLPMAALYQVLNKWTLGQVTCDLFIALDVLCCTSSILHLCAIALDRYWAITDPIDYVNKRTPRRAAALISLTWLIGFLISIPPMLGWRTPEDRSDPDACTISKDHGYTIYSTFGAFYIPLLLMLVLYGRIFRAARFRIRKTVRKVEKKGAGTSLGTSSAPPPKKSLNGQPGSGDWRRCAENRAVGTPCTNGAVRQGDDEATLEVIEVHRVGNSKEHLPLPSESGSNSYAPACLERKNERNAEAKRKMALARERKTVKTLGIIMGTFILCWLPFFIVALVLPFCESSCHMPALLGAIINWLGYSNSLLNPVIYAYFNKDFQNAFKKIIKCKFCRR

Target: 5-hydroxytryptamine receptor 1A (Rattus norvegicus, UniProt P19327)

Structure (SMILES)	Ki
CN1CCC(c2c[nH]c3ccccc23)C(O)C1 (configuration not stated)	5.53 µM
Cc1[nH]c2ccccc2c1C1=CCN(C)CC1	1.79 µM
